Data published in ChEMBL document CHEMBL1144225, “Synthesis and anticonvulsant activities of N-benzyl (2R)-2-acetamido-3-oxysubstituted propionamide derivatives” (Bioorg Med Chem, 2008).

Tested on: Mus musculus
Experiment: Neurotoxicity in ip dosed albino mouse by rotarod test
Format: toxicity, organism-based
Details: in vivo
Method in brief: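 Mice dosed intraperitoneally and tested on the rotorod for neurologic toxicity. Dose-effect data taken at the time of peak effect, given in hours.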

CCCC(CCC)C(=O)[O-].[Na+] [VALPROATE SODIUM]
TD50: 430 mg/kg
